# Test results reported in US20250136641A1, “PEPTIDES AND COMPOSITIONS FOR USE IN COSMETICS, FOOD AND MEDICINE” (priority 2022, published 2025).
# Assays:
# IL-8 = IL-8 secretion by HaCaT keratinocytes (ELISA), with or without IFNγ; assay type: cell-based, human
# TRF1 = TRF1 levels in CHA9.3 cells (immunofluorescence); assay type: cell-based; settings: 0.063 mg/mL peptide, 24-hour incubation, vs DMSO control
substance,measurement,setting,value
Gly-Asn-Glu-Leu-Leu-Asp-Tyr-NH2,secretion of IL-8 under inflammatory conditions,"IL-8; 48 hours, 0.005, 0.01 or 0.05 mg/mL together with IFNγ at 10 ng/mL, compared to positive control (IFNγ alone)","decrease, in a dose-dependent manner"
same,secretion of IL-8 under basal conditions,"IL-8; without IFNγ, all concentrations tested (SEQ ID NO: 2-NH2 0.005, 0.01, 0.05 mg/mL; SEQ ID NO: 3-NH2 0.01, 0.05 mg/mL), vs untreated cells","decreased the secretion of IL-8, but to a higher degree than SEQ ID NO: 2-NH2"
same,TRF1 intensity,TRF1,increase in TRF1
